# Data taken from patent publication US12168639B2 (priority 2013, dated 2024).
# Only a part of the results on these compounds is given; other tests are left out.
# What was measured:
# [1] = test system: rats fed a high-fat diet and sucrose supplemented (5%) drinking water; assay: Liver TAG dose finding in rats fed high-fat diet and sucrose water; format: in vivo, rat
# [2] = Stability under acidic conditions
# rats [3] = details: five days of daily treatment
# rats [4] = assay: Rats treated with vehicle or DNPME (FIGS. 20, 21, 23)
# rat model of T2D = assay: 14 days DNPME in nicotinamide/streptozotocin high fat fed rats
# Protocol: To induce mild beta-cell defect and type 2 diabetes, rats were injected with 75 mg/kg nicotinamide and, following a 15 minute wait, the rats were injected with 60 mg/kg streptozotocin. Animals were allowed to recover for 3 days, and those with random plasma glucose between 150 and 350 mg/dl were used for further study. At this time, high fat diet and sucrose water feeding was initiated. After 3 days of feeding, two weeks of daily DNPME or vehicle injections were begun.
# (§1) Liver and kidney samples were prepared and stained with hematoxylin & eosin, and analyzed (Kleiner et al., 2005, Hepatology 41:1313-1321).
# Following an overnight fast, rats with a jugular venous line were injected with a 1 g/kg intraperitoneal bolus of 50% dextrose. Blood samples were taken through the venous line before and 5, 10, 20, 30, 45, 60, and 90 min after the dextrose injection. Plasma glucose was measured enzymatically on the YSI Life Sciences 2700 Select Biochemistry Analyzer (Yellow Springs, OH), and plasma insulin was measured by radioimmunoassay. Area under the curve was measured from time point A to subsequent time point B according to the following formula: […]
# Triacylglycerol (TAG) in liver and quadriceps muscle were extracted (Bligh & Dyer, 1959, Can. J. Biochem. Physiol. 37:911-917) and measured spectrophotometrically with Diagnostic Chemicals triglyceride reagent (Diagnostic Chemicals Ltd [DCL], Charlottetown, Canada). Liver and quadriceps diacylglycerol (DAG) were extracted by homogenization in a buffer containing 20 mM Tris-HCl, 1 mM EDTA, 0.25 mM EGTA, 250 mM sucrose, 2 mM phenylmethylsulfonyl fluoride, and a protease inhibitor mixture (Roche, Indianapolis, Indiana). The cytosolic fragment was isolated from the supernatant after high speed centrifugation for 1 hour. Diacylglycerol (DAG) and ceramide content was measured by liquid chromatography/mass spectrometry/mass spectrometry (Bligh & Dyer, 1959, Can. J. Biochem. Physiol. 37:911-917).
# chow-fed rats = assay: Six weeks of daily treatment in chow-fed rats; details: six weeks daily 5 mg/kg vs vehicle
# Protocol: For the acute toxicity studies, rats were treated with an IP injection of DNPME in 100% DMSO at doses 1, 2.5, 5, 10, 25, 50, 100, and 200 mg/kg body weight. Rectal temperature was measured with a microprobe thermometer (Physitemp Instruments, Clifton, NJ) at intervals up to 2 hours after injection of the drug. Rectal temperature was measured weekly in a separate group of rats injected daily with DNPME or vehicle for 6 weeks. A separate group of rats were injected with increasing doses of DNP or DNPME in 100% DMSO to determine the 50% lethal dose (LD50). The 50% lethal dose was taken to be the dose at which 50% of rats died within 24 hours of treatment.
# To assess renal and hepatic toxicity, a group of catheterized rats was treated with an intraperitoneal (IP) injection of DMSO vehicle or 1, 2.5, 5, 10, 25 50, 100, or 200 mg/kg DNPME in DMSO daily. After five days, the rats were sacrificed and plasma obtained from the intravenous catheter. The COBAS Mira Plus (Roche Diagnostics, Indianapolis, IN) was used to measure plasma alanine aminotransferase (ALT), aspartate aminotransferase (AST), and blood urea nitrogen (BUN). Plasma creatinine was measured by liquid chromatography/mass spectrometry/mass sprectrometry (LC/MS/MS). 24 hour creatinine clearance was measured by housing rats treated with DNPME or vehicle in metabolic cages for 24 hours, collecting the urine, and measuring urine creatinine concentration by LC/MS/MS.
# as §1
compound,measurement,setting,value
COc1ccc([N+](=O)[O-])cc1[N+](=O)[O-],lowest dose effective at lowering liver TAG,"[1]; daily dose, 5 days",5 mg/kg
same,daily doses effective at reducing hepatic triglyceride accumulation,"[1]; five days of daily treatment, high-fat diet and 5% sucrose water",above 2.5 mg/kg
same,stability under acidic conditions,[2],improved stability
same,daily doses with no appreciable hepatic or renal toxicity,rats [3],below 50 mg/kg
same,visceral fat and hepatic steatosis,"rats [4]; DNPME vs vehicle, photograph",visible reductions
same,peripheral glucose uptake,"rats [4]; rat, in vivo",increases
same,fasting plasma glucose concentrations,rat model of T2D,normalized
same,fasting plasma triglyceride concentrations,rat model of T2D,normalized
same,glucose tolerance,rat model of T2D,marked improvement
same,liver TAG content,rat model of T2D,marked reduction
same,muscle TAG content,rat model of T2D,marked reduction
same,renal or hepatic histopathology,rat model of T2D,without any indication
same,liver or renal function tests,chow-fed rats,no differences
same,liver or renal histology,chow-fed rats,no differences
same,rectal temperature,chow-fed rats,no differences
